This assay can be described thus: qHTS Multiplex Assay to Identify Dual Action Probes in a Cell Model of Huntington: Cytoprotection (ATP).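 Also: toxic huntingtin expression switched on by the ecdysone agonist tebufenozide; % of control where 0% means no effect; nearly all actives have a fitted effect of over 45% in size.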 The note with it: PC12 HTT-Q103 induced, ATP luminescence, 40 h; at 10 µM (top of the series) unless noted. An excerpt: NIH Chemical Genomics Center [NCGC]
NIH Molecular Libraries Probe Production centers Network [MLPCN]
Assay Submitter (PI): Wei Zheng
Huntington's disease is a neurodegenerative disorder caused by a trinucleotide repeat expansion in Exon 1 of the Huntingtin gene. The CAG trinucleotide encodes glutamine and polyglutamine expansions cause cell death in selective areas of the brain. Huntington polyglutamine repeats have the tendency to form aggregates which are observable in later stages of the disease. The exact nature of the aggregates, whether toxic, protective, or insignificant, is unclear.
A stable PC12 cell line containing a gene fusion of Exon 1 of the Huntingtin gene linked to GFP under the control of the inducible ecdysone promoter were used as the cell-based model of Huntington Disease for high throughput screening. Exon 1 of the Huntingtin gene contained an expansion of 103 polyglutamines (Q103) which, when expressed, caused cell death and distinct, bright GFP aggregates. The amount of cell death and the size and intensity of GFP aggregates increased over time and induction level. The cell death were quantified with a measurement of ATP content in the cells. A maximal 40-50% of cell death was observed when the Huntington gene was induced in this cell line.
We optimized this assay in a homogeneous 1536 well format. A quantitative high throughput screen (qHTS) was conducted on the PC12 cells which were induced to express the toxic fusion construct. Small molecules which prevented cell death were identified by using a luminescent ATP quantification method (Perkin Elmer's ATPlite).
PC12 cells stably containing a construct with an ecdysone inducible promoter expressing GFP fused to the exon 1 of HTTQ103 (Huntington protein which containing a 103 ployglutamine expansion) were used.
NCGC Assay Protocol Summary:
Sequence, Parameter, Description
1, Reagent, 5 uL 1500 cells/well 1536 TC treated White clear bottom plate
2, Compound, 23 nL Tebufenozide inducer (100 nM final) to all columns
3, Compound, 23 nL 40 uM to 0.5 nM Libraries
5, Reagent, 5 ul ATPLite cell death assay reagent
6, Detector, 4 sec integration with a Viewlux Luminescent
Media consisted of phenol red free DMEM + 5% equine serum (Hyclone # SH30072.03 ), 5% supplemented Bovine Calf Serum (Hyclone # SH30074.03 ), 1x pen/strep, no G418
Control columns: 1 = DMSO, 2= 2 uM teb dilns (1:1), 4 = 100 nM Teb inducer. Sample columns received 100 nM Teb.
Background: qHTS replaces the single test concentration by a dilution series.

“And” between values parts separate entries of the source, which are not always exact repeats. Identical values can stand only once. Only a part is listed here, and it is no random draw. The source made the active and inactive calls. Calls follow the shape of the dose curve; as a rule, active = well fitted activation curve with a large enough effect; inconclusive = small, poorly fitted or top-dose-only effect; inactive = no such curve, though single readings can be large or run the other way.

With `Cc1ccc2nc3c(c(C)c2c1)CC(C(Cl)Cl)S3` (stereo not drawn), the cytoprotection (ATP increase) is inactive: 27.6%.
In the case of `O=[As](O)(c1ccc(O)cc1)c1ccccc1O` it was inactive: 17.2%; in that of `C[As](=O)(O)c1cccc(C(=O)O)c1`, inactive: 9.32%.
To `COc1ccc(N/C(=N/P(=O)(N2CCOCC2)N2CCOCC2)N2CCOCC2)cc1` belongs inactive: -25.1% [at 56.4 µM]; to `COc1cc(I)ccc1[As](=O)(O)O`, inactive: -7.72%; to `NC(=O)Nc1cc([As](=O)(O)O)cc(I)c1O`, inactive: 8.62%.
Turning to `COc1ccc2nc(NP(=O)(c3ccccc3)c3ccccc3)sc2c1`, the cytoprotection (ATP increase) was inactive: 6.72%.
As for `Cc1c2c(nc3ccccc13)SC(C(Cl)Cl)C2` (stereo not drawn), the cytoprotection (ATP increase) is inactive: 6.28%.
Turning to `O=C(OC1CN2CCC1CC2)C12CC3CC(CC(C3)C1)C2` (stereo not drawn), the cytoprotection (ATP increase) is inactive: -21.4% [at 0.074 µM].
Regarding `CCC(C)N(CC(C)C)C(=S)SC(NC(C)=O)C(Cl)(Cl)Cl` (stereo not drawn), the cytoprotection (ATP increase) is inactive: -20.4% [at 1.9 µM].
In the case of `CCOC(=O)c1ccc(NC(=O)C(C)(CCl)SC)cc1` (stereo not drawn) it was inactive: 22.1%.
In the case of `O=C(O)[C@@H](O)c1ccc([As](=O)(O)O)cc1`, the cytoprotection (ATP increase) is inactive: 14.2%.
To `O=C(COc1ccccc1)OC1CN2CCC1CC2` (stereo not drawn) belongs inactive: 4.24%; to `COP1(=S)c2c(C)nn(CCC#N)c2N=C(c2ccc(F)cc2)N1C` (stereo not drawn), inactive: -11.4%.
In the case of `CN(N=O)C(=N)N[N+](=O)[O-]` it was inactive: -63.9% [at 56.4 µM]; in that of `Cc1cc(SC(NC=O)C(Cl)(Cl)Cl)ncn1` (stereo not drawn), inactive: -16.7% [at 56.4 µM]; in that of `O=P(Nc1ccccn1)(c1cccc2ccccc12)c1cccc2ccccc12`, inactive: -32.3% [at 56.4 µM].
On to `O=[N+]([O-])c1ccc(Nc2ccc(Oc3ccc([N+](=O)[O-])cc3[N+](=O)[O-])cc2)c([N+](=O)[O-])c1`, for which the cytoprotection (ATP increase) is inactive: -16%.
As to `CCOC(=O)Nc1cccc([As](=O)(O)O)c1`, the cytoprotection (ATP increase) was inactive: -6.89%.
On to `Cc1cc(SC(NC(=O)c2ccccc2)C(Cl)(Cl)Cl)nc(C(C)C)n1` (stereo not drawn), for which the cytoprotection (ATP increase) is inactive: 10.2%.
In the case of `CCOC(=O)Nc1ccc([As](=O)(O)O)c(O)c1` it was inactive: -13.1%; in that of `O=C(O)CNc1ccc([As](=O)(O)O)cc1`, inactive: 29%.
To `O=[N+]([O-])c1cccc(NC2=NCC(CBr)S2)c1` (stereo not drawn) belongs inactive: -8.21%.
In the case of `O=[N+]([O-])c1ncn(CCn2ncnc2[N+](=O)[O-])n1` it was inactive: -1.33% [at 56.4 µM].
`CC(C)(C)C(=O)NC(Sc1ccncn1)C(Cl)(Cl)Cl` (stereo not drawn): the cytoprotection (ATP increase) was inactive: -3.29%.
With `O=C(Nc1cc([As](=O)(O)O)ccc1O)c1ccccc1`, the cytoprotection (ATP increase) is inactive: 23.9%.
To `CN(C(=O)Cc1ccccc1)[C@@H]1CC[C@@]2(CCCO2)C[C@H]1N1CCCC1` belongs inactive: -13.2% [at 1.9 µM]; to `CC(=O)C1=CCCC2CCC1N2` (stereo not drawn), inactive: -1.19% [at 56.4 µM] and inactive: -7.5% [at 56.4 µM].
Consider `CC1CCN(C(=O)Oc2c(Cl)cc(Cl)c3cccnc23)CC1`, for which the cytoprotection (ATP increase) was inactive: -23.5% [at 56.4 µM].
To `O=C(CO)Nc1ccc([As](=O)(O)O)cc1` belongs inactive: 8.07%.
`CC(C)=N/N=C(\N)N[N+](=O)[O-]`: the cytoprotection (ATP increase) was inactive: -0.022%.
In the case of `CCN(/C(=N/P(=O)(N1CCOCC1)N1CCOCC1)N1CCOCC1)c1ccc(OC)cc1` it was inactive: -29.6% [at 56.4 µM].
Take `C[N+]1=C2C=CC=CC=C2SC12C([N+](=O)[O-])=CC([N+](=O)[O-])=C[C-]2[N+](=O)[O-]` (stereo not drawn): the cytoprotection (ATP increase) was inactive: -48.7%.
As for `Nc1ccc([As](=O)(O)c2ccc(N)cc2)cc1`, the cytoprotection (ATP increase) is inactive: 8.84%.
In the case of `O=[N+]([O-])c1cc([N+](=O)[O-])c(CCNc2ccccc2)c([N+](=O)[O-])c1` it was inactive: -26.7% [at 56.4 µM].
In the case of `CCc1nc2c(n1)c1c(non1O)c1c2no[n+]1[O-]` it was inactive: -28.6% [at 56.4 µM].
Regarding `Cc1ccc(NP(=O)(Oc2ccccc2)Oc2ccccc2)nc1`, the cytoprotection (ATP increase) was inactive: -2.73% [at 56.4 µM].
In the case of `CC(=O)N1C2C3N(C(C)=O)C1C1N(C(C)=O)C(C(N1C(C)=O)N3C(C)=O)N2C(C)=O` it was inactive: 6.6% [at 56.4 µM].
As to `O=[N+]([O-])c1cccc2n[nH]nc12`, the cytoprotection (ATP increase) was inactive: -7.42% [at 56.4 µM].
To `COc1ccc(C2=NCC(CBr)S2)cc1` (stereo not drawn) belongs inactive: -21.3% [at 56.4 µM].
In the case of `NCC[C@@H](N)CSP(=O)(O)O` it was inactive: -5.35%.
In the case of `Cc1c2non([O-])c-2c(C)[n+](=O)[n+]1[O-]` it was inactive: -114% [at 56.4 µM].
Turning to `O=C(NC(Sc1ccncn1)C(Cl)(Cl)Cl)c1ccccc1` (stereo not drawn), the cytoprotection (ATP increase) was inactive: -10.5%.
Consider `Oc1ccccc1CNc1ccccn1`, for which the cytoprotection (ATP increase) is inactive: -9.34% [at 56.4 µM].
To `CC(C)CC(=O)NC(Sc1ccc(Cl)cc1)C(Cl)(Cl)Cl` (stereo not drawn) belongs inactive: -4.62% [at 56.4 µM].
In the case of `Nc1cc(N)c2nonc2c1[N+](=O)[O-]`, the cytoprotection (ATP increase) was inactive: 6.79%.
In the case of `Clc1ccc(Cl)c(NC2=NCC(CBr)S2)c1` (stereo not drawn) it was inactive: -16.1% [at 56.4 µM]; in that of `CN1CCCC(OC(=O)C(c2ccccc2)c2ccccc2)C1` (stereo not drawn), inactive: 13.6% [at 1.9 µM].
